High-throughput results (PubChem)
An excerpt weighted towards active compounds, which were near 0.51% of everything screened.
Rango-impB inh: Rango-importin beta binding inhibition; Potency, µM (doses to about 92.2 µM); Q14974; Rango CFP/YFP FRET sensor + importin beta, 45 min; hit rate 0.031% among 340,000; further: nearly all actives have a fitted effect of over 15% in size
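Inhibition scored from the CFP 486 nm/YFP 530 nm FRET ratio 45 min after adding 0.125 microM importin beta to 50 nM Rango biosensor preincubated 5 min with compound (room temperature, PBS with DTT, Tween-20, BSA). No-importin wells as positive control.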
CCT modulator: modulators of cytosolic chaperonin (CCT/TRiC) activity; activity change, % (no concentration beside the values), hits read low; hit rate 0.3% among 360,000; purified chaperonin ATPase assay, HTRF ADP detection, 30 min; in the data active means activity change below about -30%
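First, chaperonin was dispensed at 40 nM or 20 nM final depending on batch activity. Next, compounds were pinned at 76 uM and ATP added at 10 uM. After 30 min at 37 °C, ADP detection reagents ran 30 min at ambient temperature.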
Rango release inh: inhibition of RanGTP-driven Rango-importin beta dissociation | O95149+P62826 | Biochemical FRET Rango-importin beta, RanGTP-induced dissociation | Potency, µM (series often up to 46.1 µM) | hit rate 0.071% among 340,000; further: nearly all actives have a fitted effect of over 45% in size
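Compounds preincubate 5 min with complex of recombinant Rango and importin beta in PBS with 1 mM DTT. Ran (0.6 uM) loaded with 2 mM GTP plus 0.2 uM RCC1 starts dissociation; FRET is recorded 45 min later.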
Integrin act MD: activates integrin-mediated alleviation for muscular dystrophy; Potency, µM (doses to about 38.3 µM), hits mostly activators; hit rate 0.064% among 350,000; alpha7betagal myoblasts, beta-gal FDG fluorescence, 48 h; AID 624291; active means well fitted curve in the direction sought with a large enough effect; inconclusive means small, poorly fitted or top-dose-only effect, or another doubt; inactive means no such curve, though single readings can be large; an effect the other way counts as inactive or inconclusive; further: nearly all actives have a fitted effect of over 60% in size
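alpha7betagal+/- myoblasts (passage 13, 250/well) treated 48 h at 37C with compounds at 1:260 dilution of DMSO stock. Lysed, then beta-galactosidase activity read as FDG fluorescence (ex 480/em 540) after 30 min, with pre-read for autofluorescence.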
Mm-Cpn inhibitor: inhibitors of Methanococcus maripaludis chaperonin TRiC (MmCpn) | purified Mm-Cpn ATPase, ADP Transcreener TR-FRET | Potency, µM (doses to about 76.9 µM), hits mostly inhibitors | hit rate 0.031% among 330,000 | AID 504842; active means well fitted curve in the direction sought with a large enough effect; inconclusive means small, poorly fitted or top-dose-only effect, or another doubt; inactive means no such curve, though single readings can be large; an effect the other way counts as inactive or inconclusive; further: nearly all actives have a fitted effect of over 80% in size
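25 nM Mm-CPN + cpd, 10 min 37°C; + 10 uM ATP, 30 min 37°C; buffer 30 mM Tris pH 7.4, 100 mM KCl, 5 mM MgCl2, 1 mM DTT; Transcreener ADP HTRF detection 30 min RT.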
Each line names hits and unclear results; the compound was inactive in the other large screens; ! = not active in a repeat. Unless noted, the call rests on the fitted dose curve.

COc1ccc(Cn2c(O)c(/C=N/NC(=O)c3ccccc3)c(=O)[nH]c2=O)cc1	none
COC(=O)[C@@H]1N=C(c2ccc(OC)cc2)O[C@]12C(=O)N(Cc1ccc(OC)cc1)c1ccccc12	CCT modulator -47 (no result: Rango-impB inh, Rango release inh, Integrin act MD, Mm-Cpn inhibitor)
COc1cc(/C=C(/C)[N+](=O)[O-])ccc1OCc1ccccc1Cl	CCT modulator -31
COc1cc(C=C2C(=O)NC(=O)NC2=O)ccc1OCc1ccc([N+](=O)[O-])cc1	none
Cc1cc(-c2n[nH]c(=S)n2CC(C)C)cs1	none
COP(=O)(OC)c1nc(-c2ccc([N+](=O)[O-])cc2)oc1N1CCCCC1	Rango-impB inh 29µM
O=C1NC(=O)C(=Cc2ccccc2OCCOc2ccc([N+](=O)[O-])cc2)C(=O)N1	Rango-impB inh inconclusive, CCT modulator -32
COC1=CC(=O)OC(CCc2ccc3c(c2)OCO3)C1 (stereo unspecified)	CCT modulator -32 (no result: Mm-Cpn inhibitor)
CC(C)CS(=O)(=O)C1=NN2C(=N)/C(=C\c3ccc(OC(=O)c4ccco4)cc3)C(=O)N=C2S1	Rango-impB inh inconclusive, Rango release inh 26µM
Cc1ccc(S(=O)(=O)N(C)C[C@H]2Oc3c(NC(=O)Nc4cccc5ccccc45)cccc3C(=O)N([C@@H](C)CO)C[C@@H]2C)cc1	none
Brc1ccc(Oc2ccc(Br)cc2Br)c(Br)c1	Rango release inh 26µM (no result: Integrin act MD)
Oc1c(Br)cc(Br)cc1Oc1ccc(Br)cc1Br	none (no result: Rango-impB inh, CCT modulator, Rango release inh, Integrin act MD)
CC1=C(C(=O)O)N2C(=O)C(NC(=O)c3nn(C)cc3[N+](=O)[O-])C2SC1 (stereo unspecified)	none
N#CC1=C(N)Oc2c(c(=O)sc3ccccc23)C1c1cccnc1 (stereo unspecified)	CCT modulator -43
CCS(=O)(=O)Nc1ccc(C2=NN(C(=O)c3ccco3)C(c3ccc(Cl)o3)C2)cc1 (stereo unspecified)	Rango-impB inh inconclusive
Cc1cc(C(=O)Nc2ccc(CC(=O)O)cc2)c(C)o1	Rango release inh inconclusive, Mm-Cpn inhibitor inconclusive
C[C@]12CCC3C(CC[C@H]4C[C@@H](O)CC[C@]34C)C1=CC[C@@H]2O (stereo partly specified)	CCT modulator -35 (no result: Rango-impB inh, Rango release inh, Mm-Cpn inhibitor)
C[C@]12CCC3C(CC[C@H]4C[C@H](O)CC[C@]34C)C1C[C@H](O)[C@H]2O (stereo partly specified)	none (no result: Mm-Cpn inhibitor)
CC(C)(C)OC(=O)N1CC(O)CC1C(=O)OCC(=O)c1ccc(-c2ccccc2)cc1 (stereo unspecified)	none
CN(C)c1ccc(/C=C/c2cc[n+](C)c3ccccc23)cc1	Rango-impB inh inconclusive, Mm-Cpn inhibitor inconclusive
C[n+]1ccc(-c2ccccc2)c2ccccc21	CCT modulator -32
C=C[C@H](Cc1ccccc1)N(Cc1ccccc1)S(=O)(=O)N(Cc1ccccc1)[C@H](C=C)Cc1ccccc1	Mm-Cpn inhibitor inconclusive
COc1ccc(-n2c(/C=C/c3ccc4c(c3)OCO4)nc3ccccc3c2=O)cc1	CCT modulator -40, Integrin act MD inconclusive
COc1cccc(-n2c(/C=C/c3ccccn3)nc3ccccc3c2=O)c1	none
Cc1cccc(-n2c(/C=C/c3ccccn3)nc3ccccc3c2=O)c1	CCT modulator -38
CCC(CC)c1nnc(NC(=O)CC(C)c2ccccc2)s1 (stereo unspecified)	none
CCOC(=O)CC1c2ccccc2-n2nncc2CN1C (stereo unspecified)	CCT modulator -86 (no result: Mm-Cpn inhibitor)
CCOC(=O)CC1c2ccccc2-n2nncc2CN1CC1CCCCC1 (stereo unspecified)	none (no result: Rango-impB inh, Rango release inh, Mm-Cpn inhibitor)
CN1CCC23c4c5ccc(O)c4O[C@@H]2[C@H](O)C=CC3C1C5 (stereo partly specified)	CCT modulator -45 (no result: Integrin act MD)
CN1CC[C@]23c4c5ccc(O)c4OC2[C@H](O)C=CC3[C@H]1C5 (stereo partly specified)	none (no result: Integrin act MD)
CCCCCCC[n+]1ccc(-c2cc[n+](CCCCCCC)cc2)cc1	none
CCCCCCCCCCCCCCCC[n+]1ccccc1	Rango-impB inh 65µM!, Rango release inh inconclusive (no result: Mm-Cpn inhibitor)
Cc1ccc(S(=O)(=O)NN)c(C)c1N1CCCC1=O	Integrin act MD inconclusive
Cc1cc2ccccc2n1CCNC(=O)COc1ccccc1	Rango-impB inh inconclusive, CCT modulator -32, Rango release inh inconclusive
CCCCCCC(Cl)(Cn1ccnc1)c1ccccc1 (stereo unspecified)	CCT modulator -35 (no result: Mm-Cpn inhibitor)
O=C1NC(=O)C(=Cc2ccc(N3CCOCC3)o2)C(=O)N1	Rango-impB inh inconclusive
C=CCN1C(=O)/C(=C/c2ccc(N3CCOCC3)o2)C(=O)NC1=S	Rango-impB inh 58µM
Cc1cc(C)cc(N2C(=O)/C(=C\c3ccc(N4CCN(C)CC4)o3)C(=O)NC2=S)c1	Rango-impB inh 52µM, Rango release inh inconclusive
C[C@@H]1CN([C@@H](C)CO)C(=O)c2c(c3ccccc3n2C)-c2ccccc2CO[C@H]1CN(C)C(=O)[C@H](C)c1ccccc1	none (no result: Rango-impB inh, Rango release inh, Mm-Cpn inhibitor)
O=C(c1cc(F)ccc1F)C1CCCN(CCCc2ccccc2)C1 (stereo unspecified)	CCT modulator -30
